The target of the assay is heterotrimeric PP2A holoenzyme involving the Bα subunit (Aα-Bα-Cα) ( | human). In words: native gel or EMSA. (In EMSA bound probe runs differently from free probe, usually more slowly.)

B1: full-length Tau, splice variant 4R0N (human) (natural protein)
chain: not shown
By Kd is commonly meant the equilibrium constant for the complex coming apart. Read a low Kd as a tighter complex. For the molecule B1, the Kd was about 3000 nM.

The values above are taken from publication PMC2818795 (Molecular cell, 2008).
